Experiment [1] deals with LX1. Put plainly: Relative drug sensitivity in NSCLC cell lines, BrdU Cell Proliferation ELISA. The experiment is classed as cell-based, human. The conditions noted are these: LX1 (LX-1) cell line, EGFR negative. As to the method:
(§1) The NSCLC cell lines were grown using standard cell culture conditions: DMEM supplemented to contain 10% fetal bovine serum, 100 IU/ml penicillin, […] streptomycin and 2 mM L-glutamine (all from Invitrogen Life Technologies, Carlsbad, Calif.). […] Cytotoxicity was assessed in cells by BrdU Cell Proliferation calorimetric ELISA (Roche Applied Science, Indianapolis, Ind.). This is a calorimetric immunoassay for the quantification of cell proliferation based on the measurement of BrdU incorporation during DNA synthesis. To carry out the assays, the NSCLC cells were plated at 2500-5000 cells/well in 96 well microtiter plates and 24 hours later diluted monoclonal antibody drug was added. […] The cells were incubated at 37° C. for 48 hours at which time the BrdU labeling reagent was added. After two hours the labeling medium was removed and cells were fixed and the DNA was denatured using a FixDenat solution. The anti-BrdU antibody conjugated with peroxidase was added and immune complexes were detected by the subsequent substrate reaction. The reaction product was quantified by measuring the absorbance of the samples in an ELISA reader at […]. The greater the absorbency, the greater the number of live cells. […] The IC50 is the drug concentration required to inhibit cell proliferation to 50% of that of untreated cells. Three to six independent BrdU assays were performed for each cell line.
(§2) For the analysis, cell lines ChagoK1 and L2987 were defined as sensitive and the remaining twelve cell lines were defined as resistant.

In experiment [2] the test system is H226. Described as above. It counts as cell-based, human. The conditions noted are these: H226 cell line, EGFR+. As for the experimental part: as §1, §2
Experiment [3] deals with A549. The description is as above. It counts as cell-based, human. The conditions noted are these: A549 cell line, EGFR+. As to the method: as §1, §2
Experiment [4] concerns H522. The description is as above. The conditions noted are these: H522 cell line, EGFR negative. It counts as cell-based, human. As for the experimental part: as §1, §2
In experiment [5] the test system is H661. The experiment is described as above. The conditions noted are these: H661 cell line. The experiment is classed as cell-based, human. As for the experimental part:
as §1, §2

Experiment [6] has as its system Calu6. The description is as above. The experiment is classed as cell-based, human. The conditions noted are these: Calu6 cell line. As for the experimental part: as §1, §2
In experiment [7] the test system is SK-MES1. The experiment is described as above. The experiment is classed as cell-based, human. The conditions noted are these: SK-MES1 cell line. As for the experimental part:
as §1, §2

Experiment [8] relates to H441. The description is as above. It counts as cell-based, human. The conditions noted are these: H441 cell line. As for the experimental part:
as §1, §2

Experiment [9] concerns H2347. The experiment is described as above. The conditions noted are these: H2347 cell line. The experiment is classed as cell-based, human. As for the experimental part:
as §1, §2

The subject of experiment [10] is L2987. Described as above. The experiment is classed as cell-based, human. The conditions noted are these: L2987 cell line. As for the experimental part: as §1, §2
Experiment [11] relates to ChagoK1. Described as above. The experiment is classed as cell-based, human. The conditions noted are these: ChagoK1 cell line. As for the experimental part:
as §1, §2

In experiment [12] the test system is SW900. Described as above. The experiment is classed as cell-based, human. The conditions noted are these: SW900 cell line. As to the method: as §1, §2
The test system of experiment [13] is SK-LU1. The experiment is described as above. The conditions noted are these: SK-LU1 cell line. It counts as cell-based, human. As for the experimental part: as §1, §2
Experiment [14] deals with H838. The description is as above. The experiment is classed as cell-based, human. The conditions noted are these: H838 cell line. As to the method: as §1, §2
The subject of experiment [15] is L2987 lung xenograft. The experiment is described as follows: In vivo antitumor testing, lung xenograft model. The conditions noted are these: nude mice. As for the experimental part:
(§3) Regulation by EGFR inhibitors in lung xenograft models would lend additional support to the candidate markers, as being predictive of response.
(§4) Tumors were propagated in nude mice as subcutaneous (sc) transplants using tumor fragments obtained from donor mice. Tumor passage occurred approximately every two to four weeks. Tumors were then allowed to grow to the pre-determined size window (usually between 100-200 mg, tumors outside the range were excluded) and animals were evenly distributed to various treatment and control groups. […] Treated animals were checked daily for treatment related toxicity/mortality. Each group of animals was weighed before the initiation of treatment (Wt1) and then again following the last treatment dose (Wt2). The difference in body weight (Wt2-Wt1) provided a measure of treatment-related toxicity. Tumor response was determined by measurement of tumors with a caliper twice a week, until the tumors reached a predetermined target size of 1 gm or became necrotic. Tumor weights (mg) were estimated from the formula: Tumor weight=(length×width^2)/2 Antitumor activity was determined in terms of primary tumor growth inhibition. This was determined in two ways: (i) calculating the relative median tumor weight (MTW) of treated (T) and control (C) mice at various time points (effects were expressed as % T/C); and (ii) calculating the tumor growth delay (T-C value), defined as the difference in time (days) required for the treated tumors (T) to reach a predetermined target size compared to those of the control group (C). Statistical evaluations of data were performed using Gehan's generalized Wilcoxon test for comparisons of time to reach tumor target size (Gehan 1965). Statistical significance was declared at p<0.05. […]
(§5) Treated animals were checked daily for treatment related toxicity/mortality. When death occurred, the day of death was recorded. […]

Experiment [16] concerns A549 lung xenograft. The experiment is described as follows: In vivo antitumor testing, lung xenograft model. The conditions noted are these: nude mice. As to the method:
as §3, §4, §5

The subject of experiment [17] is LX1 lung xenograft. The experiment is described as follows: In vivo antitumor testing, lung xenograft model. The conditions noted are these: nude mice. As for the experimental part: as §3, §4, §5

The values that follow come from patent publication US20070259375A1, “Biomarkers and Methods for Determining Sensitivity to Epidermal Growth Factor Receptor Modulators in Non-Small Cell Lung Cancer” (Bristol-Myers Squibb Company, priority 2004, published 2007).

Turning to cetuximab, the resistance/sensitivity classification entry in experiment [1], in experiment [2], in [3], in experiment [4], in experiment [5] and in [6] was “resistant” each time. For the same substance, the resistance/sensitivity classification entry in experiment [7] was “resistant”; in experiment [8] it was “resistant”; in experiment [9], “resistant”; in experiment [10] it was “sensitive”; in [11], “sensitive”; in experiment [12], “resistant”. Moreover, the resistance/sensitivity classification entry in [13] and in experiment [14] was “resistant” in each case. Moreover, the results for the “sensitivity of lung xenograft model” value in [15], in experiment [16] and in experiment [17] were “sensitive”, “borderline sensitive” and “resistant”, respectively.
